# Antibody variant affinities, Ab-14 light chain, assay B

Data: MIT Lincoln Laboratory AlphaSeq set, Li et al. 2023, doi:10.1038/s41467-023-39022-2, as distributed in FLAb.

Target peptide (SARS-CoV-2 spike, HR2 region): PDVDLGDISGINAS

Parent: Ab-14, a human scFv built as VH, three GGGGS repeats, VL. Only the CDRs of the light chain vary.
VH: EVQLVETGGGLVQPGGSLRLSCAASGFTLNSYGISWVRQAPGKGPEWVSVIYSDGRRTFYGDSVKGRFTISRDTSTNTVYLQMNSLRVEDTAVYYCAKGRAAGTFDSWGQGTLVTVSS
VL: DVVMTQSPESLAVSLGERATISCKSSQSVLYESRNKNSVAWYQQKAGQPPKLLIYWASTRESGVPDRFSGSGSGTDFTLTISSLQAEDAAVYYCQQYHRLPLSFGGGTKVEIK

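These sequences belong to a second round, designed from the earlier measurements on random variants of the parent. Group labels follow the data file (En: ensemble of fine-tuned language models; GP: Gaussian process model; HC: hill climbing; Gen: genetic algorithm; Gibbs: Gibbs sampling; a sequence that several methods proposed may carry one label only). In AlphaSeq, yeast of one mating type display the scFv and yeast of the other type display the target. Pairs that bind mate more often; barcode pairs of the diploids are counted by sequencing. Each replicate has its own calibration line, from reference interactions of the BCL2 family. There are six technical replicates.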

The parent's light chain CDRs are KSSQSVLYESRNKNSVA, WASTRES, QQYHRLPLS; each variant's own CDRs replace them letter for letter.
This list holds designs with more than six substitutions.
The Kd shown is the geometric mean over detected replicates; a lower Kd is a better binder.
A pair that was not seen in any replicate is written "nd"; this usually means weak binding, but a binder can also be missed.
Of ten entries with the parent sequence, four were seen in most replicates (averages 2.2 nM to 240 nM), three in one and three in none, so single entries are noisy.
In the paper, a design with two or fewer of six values counts as a poor binder.
A sequence measured in both rounds can read differently, since the two assays cover different ranges.
Nonspecific signal, from three strains lacking the peptide, appeared in 4% of pairings of all light chain designs, centred on 430 nM (5% of these signals below 38 nM); values are not corrected for it. Also given: how often the same scFv was detected with the empty control strains.

With KLQQWHLYESRMKNSVA | HASKRES | QCYHRLPLS [GP_Gibbs] the result was 48 nM (6 of 6 replicates; controls 0 of 18). The variant KLSNMQEYESRWKNSVA | NASTREL | QQYHRLPLS [GP_Gibbs] gave 6.0 nM (6 of 6 replicates; controls 0 of 18). The variant SVAMLLDQQYAKGANIA | NAAELVV | QQYYRLPLT [En_Gibbs] showed nd (0 of 6 replicates; controls 0 of 18). With MISDLTMYGSRNYNSVA | DLSTRGS | QQYHRLPLS [En_HC] the result was 800 pM (6 of 6 replicates; controls 1 of 18). The variant ALEMDTLGQKPKQNNIA | NARVSTE | QQYYMLPLS [En_Gibbs] gave 7.0 nM (6 of 6 replicates; controls 0 of 18). The variant KVDFLGDMESRNKNAVA | SASTRES | QQYHRLPLS [GP_Gibbs] showed 840 pM (6 of 6 replicates; controls 0 of 18). With KISMGWEMNTRQNHNMA | EASLKDS | QQYNRLPLF [En_Gibbs] the result was 1.2 nM (6 of 6 replicates; controls 0 of 18). For MFSQSVMYGSFMRNSVA | QTTTREN | QQYDRLPLM [En_HC], the assay gave nd (0 of 6 replicates; controls 0 of 18).

With MISQLYNMGQFAINSVA | QASERSN | QQYDRLPLA [En_Gen] the result was 27 nM (2 of 6 replicates; controls 0 of 18). For SMSNAQINPDVWKNSIA | DAEHVAY | QQYSRLPLT [En_Gibbs], the assay gave 1.3 nM (6 of 6 replicates; controls 0 of 18). With HMSALTLGGMRARNSVA | QMTTREN | QQYDRLPLS [En_Gen] the result was 2.0 nM (6 of 6 replicates; controls 1 of 18). For IVSQLMLWGWHAKNSIA | EAQMRLN | QQYDRLPLM [En_Gen], the assay gave nd (0 of 6 replicates; controls 0 of 18). With KLGSMVLLEHGNINSIA | QQSTREE | QQYDRLPLS [En_HC] the result was 3.2 nM (6 of 6 replicates; controls 1 of 18). With TLMQVGGYEMNAHNSIA | DLRTRED | QQYHRLPLS [En_HC] the result was 7.8 nM (6 of 6 replicates; controls 1 of 18). The variant TLSDLMHMESRNVNSVA | DLVKRES | QQYHRLPLS [En_HC] showed 1.0 nM (6 of 6 replicates; controls 2 of 18). The variant RVQINSGHSDMHWKSIA | SASIRAD | QQYERLPLE [En_Gibbs] gave 3.8 nM (6 of 6 replicates; controls 2 of 18).

With KSQQQWEYGDRNKNSVA | NASQRED | QQYHRLPLS [GP_Gibbs] the result was 460 pM (6 of 6 replicates; controls 1 of 18). The variant KLLGEVTGHSRNRNSVA | HNSTRED | QQYDRLPLS [En_HC] showed 280 nM (5 of 6 replicates; controls 3 of 18). With KLEQSDLLESRNKQSVA | QASTRMS | QQYHRLPLS [GP_Gibbs] the result was 1.5 nM (6 of 6 replicates; controls 0 of 18). The variant MISQMINMGSFAINSVA | QASIRCN | QQYDRLPLM [En_Gen] gave 76 nM (2 of 6 replicates; controls 0 of 18). For QISMSVGLTSFNKNSVA | ENSTREN | QQYDRLPLS [En_HC], the assay gave 610 nM (4 of 6 replicates; controls 1 of 18). The variant KLSPSVLGMERAKNSVA | NASTRES | QQYHRLPLS [GP_Gibbs] showed 970 pM (6 of 6 replicates; controls 0 of 18). The variant KIEDSNSWHLRGTSAVA | QASTRAA | QQYQRLPLL [En_Gibbs] gave 2.4 nM (6 of 6 replicates; controls 6 of 18). The variant HMSQVTMYGMWMRNSVA | QTSTREQ | QQYDRLPLS [En_HC] showed 15 nM (6 of 6 replicates; controls 1 of 18).

For RLRLKELGMSYDANQIA | DSENRIK | QQYYRLPLT [En_Gibbs], the assay gave 1.5 nM (6 of 6 replicates; controls 1 of 18). The variant KMAQGWGYESRNANNVA | NASQRES | QQYHRLPLS [GP_Gibbs] gave 850 pM (6 of 6 replicates; controls 0 of 18). The variant KAQLDHQGQPKNHNSIA | EGISRTT | QQYFRLPLM [En_Gibbs] gave 1.4 nM (6 of 6 replicates; controls 0 of 18). For KLYERGEGSQKVDRSIA | EMQTRCE | QSYQRLPLS [En_Gibbs], the assay gave 2.3 nM (6 of 6 replicates; controls 3 of 18). For SLGMVTMLEYAGRNSVA | NNSTREK | QQYDRLPLS [En_Gen], the assay gave 880 nM (3 of 6 replicates; controls 2 of 18). The variant MIAGSLESQEANQAPVA | SATCREP | QQYFQLPLM [En_Gibbs] showed 10 nM (6 of 6 replicates; controls 0 of 18). The variant TLVQSVMSGSRIKNSVA | NAETRYD | QHYHRLPLS [En_HC] showed 38 nM (5 of 6 replicates; controls 0 of 18). With KLPAATMQESVSKNSVA | ELSTRGS | QQYHRLPLS [En_HC] the result was 3.0 nM (6 of 6 replicates; controls 1 of 18).

For KLSIMYQHTSHNKNNIA | ERSTREE | QQYHHLPLS [En_HC], the assay gave 2.4 nM (6 of 6 replicates; controls 1 of 18). For IVTQLMLWGWHAKNSIA | EAQTRVN | QQYDRLPLF [En_Gen], the assay gave nd (0 of 6 replicates; controls 0 of 18). For KLGSATRFESSNKASIA | DNSTREE | QQYHRLPLS [En_HC], the assay gave 6.1 nM (6 of 6 replicates; controls 0 of 18). The variant MLSQMWGIGQKAKNSVA | QASMRFN | QQYDRLPLI [En_Gen] gave 27 nM (6 of 6 replicates; controls 1 of 18). The variant MISDLMMYGSRAKNPIA | NAETREY | QQYHRLPLE [En_HC] showed 4.3 nM (6 of 6 replicates; controls 2 of 18). The variant ALALTLHQNESNQSNIA | QVQEREV | QQYYRLPLG [En_Gibbs] gave 440 nM (4 of 6 replicates; controls 1 of 18). With SLEMFTGMLNMYASSIA | NATYLVQ | QQYYRLPIS [En_Gibbs] the result was 8.9 nM (6 of 6 replicates; controls 0 of 18). For KISQMSNIESITHNSVA | QTSTRES | QQYDRLPLS [En_HC], the assay gave 9.3 nM (6 of 6 replicates; controls 0 of 18).

The variant MMSQVTGQGQKHRNNVA | QTSTREP | QQYDRLPLI [En_Gen] gave 9.9 nM (6 of 6 replicates; controls 0 of 18). With HLSDLVKEESRNTNSVA | DNSTRGS | QQYDRLPLS [En_HC] the result was 47 nM (6 of 6 replicates; controls 2 of 18). For NVGQLMDGETRNHNSVA | HQSTRED | QHYHRLPLS [En_HC], the assay gave 100 nM (6 of 6 replicates; controls 0 of 18).

A selection of 7 entries from above:

CDR-L1	CDR-L2	CDR-L3	group	Kd (apparent)	detected	empty controls
SVAMLLDQQYAKGANIA	NAAELVV	QQYYRLPLT	En_Gibbs	nd	0 of 6	0 of 18
KLPAATMQESVSKNSVA	ELSTRGS	QQYHRLPLS	En_HC	3.0 nM	6 of 6	1 of 18
MLSQMWGIGQKAKNSVA	QASMRFN	QQYDRLPLI	En_Gen	27 nM	6 of 6	1 of 18
MISQMINMGSFAINSVA	QASIRCN	QQYDRLPLM	En_Gen	76 nM	2 of 6	0 of 18
KLGSATRFESSNKASIA	DNSTREE	QQYHRLPLS	En_HC	6.1 nM	6 of 6	0 of 18
KIEDSNSWHLRGTSAVA	QASTRAA	QQYQRLPLL	En_Gibbs	2.4 nM	6 of 6	6 of 18
KAQLDHQGQPKNHNSIA	EGISRTT	QQYFRLPLM	En_Gibbs	1.4 nM	6 of 6	0 of 18